# Results taken from PubChem BioAssay AID652163 (Broad Institute, 2013).
# Protein sequences, listed by entry. Tags and fused reporters are not part of them.
# UniProt P26447, whole entry: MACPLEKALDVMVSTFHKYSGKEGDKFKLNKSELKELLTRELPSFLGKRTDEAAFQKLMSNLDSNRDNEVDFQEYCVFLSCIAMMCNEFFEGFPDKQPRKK
# The entries are a selection whose mix differs from that of the whole data set. The source made the active and inactive calls.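 The calls were made as follows: active = mean inhibition of at least 70% across replicates, with every replicate also reaching that level; inconclusive = mean inhibition reaches 70% but some replicates fall short; inactive = mean inhibition below 70%.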
# Molecular target: Protein S100-A4 (Homo sapiens) (UniProt P26447)
# Assay: inhibitors of S100A4-myosin IIA peptide binding, primary screen, biochemical, fluorescence polarization, TAMRA-MyoIIA peptide (AID 652163)
# Conditions: at 10.7 µM, hits give high values
row,Compound,inhibition
1,CCC(=O)N(c1ccccc1)C1(COC)CCN(CCc2cccs2)CC1,inactive: -1.32%
2,CCC(=O)N(c1ccccc1)C1(COC)CCN(CCn2nnn(CC)c2=O)CC1,inactive: -1.33%
